Drawing on PubChem BioAssay AID588590 (National Center for Advancing Translational Sciences (NCATS), 2011), this text covers Potency for 118 molecules.

The chains behind the UniProt entries cited, without tags or fusion partners. Where a name states a change or a piece, a line headed by the entry shows the natural chain unless it says otherwise.
UniProt Q9UNA4: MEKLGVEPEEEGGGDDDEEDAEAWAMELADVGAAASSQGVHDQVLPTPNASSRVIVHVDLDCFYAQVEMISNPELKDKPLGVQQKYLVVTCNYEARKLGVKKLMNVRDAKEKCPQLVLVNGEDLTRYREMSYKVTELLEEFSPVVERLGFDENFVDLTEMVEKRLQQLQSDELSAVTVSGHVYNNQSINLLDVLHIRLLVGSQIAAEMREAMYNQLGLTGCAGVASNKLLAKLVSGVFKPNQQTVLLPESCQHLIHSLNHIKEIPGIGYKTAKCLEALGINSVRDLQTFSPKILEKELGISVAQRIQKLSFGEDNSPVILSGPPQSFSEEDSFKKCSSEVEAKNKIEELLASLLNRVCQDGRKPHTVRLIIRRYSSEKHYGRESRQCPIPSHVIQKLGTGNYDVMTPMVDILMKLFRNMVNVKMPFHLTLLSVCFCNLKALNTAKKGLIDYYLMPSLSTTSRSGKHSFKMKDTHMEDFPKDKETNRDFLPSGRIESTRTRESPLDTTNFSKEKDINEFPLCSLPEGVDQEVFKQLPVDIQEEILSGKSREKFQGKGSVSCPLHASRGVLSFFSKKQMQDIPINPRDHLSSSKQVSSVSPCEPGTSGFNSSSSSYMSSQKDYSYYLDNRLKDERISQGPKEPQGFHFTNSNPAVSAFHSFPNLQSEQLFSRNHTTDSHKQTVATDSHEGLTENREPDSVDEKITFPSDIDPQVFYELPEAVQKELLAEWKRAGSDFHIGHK

The entries are a selection whose mix differs from that of the whole data set. Results filed as inconclusive are left out. Where a call stands in place of a potency, no number is given. Calls of active or inactive are those of the source. Calls follow the shape of the dose curve; as a rule, active = well fitted inhibition curve with a large enough effect; inconclusive = small, poorly fitted or top-dose-only effect, or another doubt; inactive = no such curve, though single readings can be large or run the other way.
Potency is read from the fitted curve at half-maximal effect.

The target in the test is DNA polymerase iota (Homo sapiens) (UniProt Q9UNA4). Kind of test: qHTS for Inhibitors of Polymerase Iota. The following applies: Pol iota fluorescent replication assay, 10 min; series mostly up to 115 µM. (qHTS replaces the single test concentration by a dilution series.)
Turning to `CCOC(=O)c1ccc(NC(=O)C(C)(CCl)SC)cc1` (stereo not drawn), the Potency entry is “inactive”.

In the case of `O=C(OC1CN2CCC1CC2)c1cccc([N+](=O)[O-])c1` (stereo not drawn), the Potency entry was “inactive”. On to `CCOP(=O)(Nc1cccc2cccnc12)OCC`, for which the Potency entry was “inactive”. On to `CCC(C)N(CC(C)C)C(=S)SC(NC(C)=O)C(Cl)(Cl)Cl` (stereo not drawn), for which the Potency result is “inactive”. To `COP1(=S)c2c(C)nn(CCC#N)c2N=C(c2ccc(F)cc2)N1C` (stereo not drawn) belongs “inactive”; to `O=C(COc1ccccc1)OC1CN2CCC1CC2` (stereo not drawn), “inactive”. Turning to `O=C(Nc1ccncc1[N+](=O)[O-])c1ccc([N+](=O)[O-])cc1[N+](=O)[O-]`, the Potency entry was “inactive”.

Consider `CCOC(=O)Nc1cccc([As](=O)(O)O)c1`, for which the Potency result was “inactive”. In the case of `O=[N+]([O-])c1ccc(Nc2ccc(Oc3ccc([N+](=O)[O-])cc3[N+](=O)[O-])cc2)c([N+](=O)[O-])c1`, the Potency result was “inactive”. The value for `O=P(Nc1ccccn1)(c1cccc2ccccc12)c1cccc2ccccc12` was “inactive”; that for `Cc1cc(SC(NC=O)C(Cl)(Cl)Cl)ncn1` (stereo not drawn) was “inactive”.

In the case of `CC1CCNP(=O)(N(CCCl)CCCl)O1` (stereo not drawn), the Potency result was “inactive”.

As to `CCOC(=O)Nc1ccc([As](=O)(O)O)c(O)c1`, the Potency entry was “inactive”.

Regarding `CCCCOc1ccc(C(=O)NCC2(N3CCCCC3)CCCCC2)cc1OC`, the Potency entry was “inactive”.

Consider `Cc1cc(SC(NC(=O)c2ccccc2)C(Cl)(Cl)Cl)nc(C(C)C)n1` (stereo not drawn), for which the Potency entry was “inactive”.

On to `CC(C)c1ccc(OP(=O)(Nc2ccccn2)Oc2ccccc2F)cc1` (stereo not drawn), for which the Potency result is “inactive”. `COC(=O)C1(C)COP(=O)(N2CCCCCC2)OC1` (stereo not drawn): the Potency entry is “inactive”.

Turning to `O=Cc1ccc(NCCCl)cc1`, the Potency result is “inactive”.

For the molecule `ClCCSc1nnc(-c2cccnc2)o1`, the Potency entry is “inactive”. `O=C(OC1CN2CCC1CC2)c1cccc2[nH]cnc12` (stereo not drawn): the Potency entry was “inactive”. As to `CCN(CC)C(=S)SC(NC=O)C(Cl)(Cl)Cl` (stereo not drawn), the Potency result was “inactive”.

In the case of `CC(C)NC(=O)NP(=O)(Oc1ccccc1)Oc1ccccc1`, the Potency entry was “inactive”.

For `COc1cc(C(=O)NCC2(N3CCOCC3)CCCCC2)ccc1OCC(C)C`, the Potency entry is “inactive”. The value for `O=[N+]([O-])c1ccc(-c2cc([N+](=O)[O-])c(O)c([N+](=O)[O-])c2)cc1` was “inactive”; that for `Cc1ccc(OP(=O)(Nc2ccc([N+](=O)[O-])cn2)Oc2ccc(C)cc2)cc1` was “inactive”; that for `COc1ccc(N/C(=N/P(=O)(N2CCOCC2)N2CCOCC2)N2CCOCC2)cc1` was “inactive”. As for `O=[N+]([O-])c1cc(Oc2ccc([N+](=O)[O-])cc2C(F)(F)F)cc([N+](=O)[O-])c1`, the Potency entry is “inactive”. The value for `O=C(OC1CN2CCC1CC2)C12CC3CC(CC(C3)C1)C2` (stereo not drawn) was “inactive”. The value for `Cc1cc(=O)[nH]c(N[N+](=O)[O-])n1` was “inactive”; that for `Cc1c2c(nc3ccccc13)SC(C(Cl)Cl)C2` (stereo not drawn) was “inactive”; that for `COc1ccc2nc(NP(=O)(c3ccccc3)c3ccccc3)sc2c1` was “inactive”. To `COc1cc(I)ccc1[As](=O)(O)O` belongs “inactive”; to `O=P1(N(CCCl)CCCl)OCCCN1CCCl` (stereo not drawn), “inactive”; to `O=P1(N(CCCl)CCCl)Nc2ccccc2N1`, “inactive”. Turning to `CCCOP(=S)(Nc1nc(N)cc(=O)[nH]1)OCCC`, the Potency result is “inactive”.

For `COc1cc(C2NCCC3(OCCO3)C2(C)C)cc(OC)c1OC` (stereo not drawn), the Potency result is “inactive”. To `CCOP(=O)(Nc1cccc2ccccc12)OCC` belongs “inactive”. To `COc1cc(C(=O)NCC2(N3CCOCC3)CCCCC2)cc(Cl)c1OC(C)C` belongs “inactive”; to `O=[As](O)(O)c1cccnc1`, “inactive”.

Turning to `CS(=O)(=O)c1ccc(Cl)c(NC(=O)COC(=O)C(O)(c2ccccc2)c2ccccc2)c1`, the Potency entry was “inactive”. Consider `O=C(OC1CN2CCC1CC2)c1ccc(Cl)cc1` (stereo not drawn), for which the Potency result was “inactive”. The value for `CN(C(=O)Cc1ccc(Cl)c(Cl)c1)[C@@H]1CC[C@]2(CCCO2)C[C@H]1N1CCCC1` was “inactive”; that for `O=[As](O)(c1cccc(O)c1)c1cccc(O)c1` was “inactive”; that for `Cc1cccc(OCC(=O)OC2CN3CCC2CC3)c1` (stereo not drawn) was “inactive”. To `NC(=O)Nc1ccc([As](=O)(O)O)cc1` belongs “inactive”; to `CN(C(=O)Cc1ccc(Cl)c(Cl)c1)[C@H]1CC[C@@]2(CCCO2)C[C@@H]1N1CCCC1`, “inactive”. As to `N#CCCN(C(=O)COC(=O)C(O)(c1ccccc1)c1ccccc1)c1ccc(F)cc1`, the Potency result was “inactive”. For the molecule `CCOP1(=S)c2c(C)nn(CCC#N)c2N=C(c2ccc(F)cc2)N1C` (stereo not drawn), the Potency entry was “inactive”. To `CN(C(=O)Cc1ccccc1)[C@@H]1CC[C@]2(CCCO2)C[C@H]1N1CCCC1` belongs “inactive”; to `CCOP1(=S)c2c(C)nn(CCC#N)c2N=C(c2ccccc2F)N1C` (stereo not drawn), “inactive”. For `O=P(Nc1nccs1)(Oc1ccccc1)Oc1ccccc1`, the Potency entry was “inactive”.

For the molecule `Nc1ccccc1[As](=O)(O)c1ccccc1`, the Potency entry is “inactive”. As to `O=P1(Nc2ncccn2)COc2ccccc2OC1`, the Potency result was “inactive”.

`O=P1(Nc2ccc(Br)cn2)COc2ccccc2OC1`: the Potency entry is “inactive”.

On to `NS(=O)(=O)c1cccc(NC(=O)COC(=O)C(O)(c2ccccc2)c2ccccc2)c1`, for which the Potency result was “inactive”. For the molecule `O=[As](O)(c1cccs1)c1cccs1`, the Potency result is “inactive”. For `Cc1ccc(OCC(=O)OC2CN3CCC2CC3)cc1` (stereo not drawn), the Potency result was “inactive”. The value for `Nc1cccc([As](=O)(O)c2ccccc2)c1` was “inactive”; that for `Cc1nn(-c2ccccc2)c2c1P(=O)(N1CCOCC1)N(C)C(c1ccccc1)=N2` (stereo not drawn) was “inactive”; that for `COc1cc([N+](=O)[O-])ccc1[N+](=O)[O-]` was “inactive”. Take `CC1CCC(C(C)C)C(OP(=O)(Nc2ccccn2)c2ccccc2)C1` (stereo not drawn): the Potency result was “inactive”. The value for `Cc1ccc(C(=O)OC2CN3CCC2CC3)cc1` (stereo not drawn) was “inactive”; that for `O=C(/C=C/c1ccccc1)OC1CN2CCC1CC2` (stereo not drawn) was “inactive”; that for `CCCC1OP(=O)(Nc2ccccc2)OCC1CC` (stereo not drawn) was “inactive”. To `CN(C)C1(CNC(=O)c2ccc(S(C)(=O)=O)cc2)CCCCC1` belongs “inactive”. The value for `COc1ccccc1CNC(=O)COC(=O)C(O)(c1ccccc1)c1ccccc1` was “inactive”; that for `CC1(CBr)Cn2c(nc3ccccc3c2=O)S1` (stereo not drawn) was “inactive”; that for `CC(C)/C=N\N=C(\N)N[N+](=O)[O-]` was “inactive”. With `CN(C(=O)Cc1ccc(Cl)c(Cl)c1)[C@@H]1CCCC[C@H]1N1CCCC1`, the Potency result was “inactive”. To `CN(CCCl)Cc1cc(Cl)c(NC2=NCCN2)c(Cl)c1` belongs “inactive”; to `CCOP(=O)(Nc1ccc(C)cn1)OCC`, “inactive”. In the case of `O=P1(Nc2ccccn2)COc2ccccc2OC1`, the Potency result was “inactive”. To `CCC1=CC2Cc3nc4ccc(Cl)cc4c(N)c3C(C1)C2` (stereo not drawn) belongs “inactive”; to `CCOP(=O)(NC(=NC(C)c1ccccc1)NC(C)c1ccccc1)OCC` (stereo not drawn), “inactive”; to `Clc1n[nH]nc1-c1nn[nH][15n]1`, “inactive”. To `CC(C)(C)C(=O)NC(Sc1ncccn1)C(Cl)(Cl)Cl` (stereo not drawn) belongs “inactive”.

Consider `COc1cccc([N+](=O)[O-])c1[N+](=O)[O-]`, for which the Potency result is “inactive”. For `CC(C)C(=O)NC(Sc1ccccc1)C(Cl)(Cl)Cl` (stereo not drawn), the Potency result was “inactive”. Take `O=P(Nc1nccs1)(c1ccccc1)c1ccccc1`: the Potency result is “inactive”. `c1nnnn1CCn1cnnn1`: the Potency entry is “inactive”. With `O=[N+]([O-])c1ccc(O)c(/C=N/Nc2ccc([N+](=O)[O-])cc2[N+](=O)[O-])c1`, the Potency entry is “inactive”. Turning to `O=[N+]([O-])c1ncn(CCn2cnc([N+](=O)[O-])n2)n1`, the Potency result was “inactive”. For the molecule `CC(=O)NC(SC(=S)N(C)C)C(Cl)(Cl)Cl` (stereo not drawn), the Potency result was “inactive”.

As to `O=[As](O)(c1ccccc1)c1ccc(O)cc1`, the Potency result is “inactive”. To `Nc1ccc([As](=O)(O)c2ccc([N+](=O)[O-])cc2)cc1` belongs “inactive”; to `C(Cc1nn[nH]n1)Cc1nn[nH]n1`, “inactive”; to `O=C(OC1CN2CCC1CC2)c1cccc(Cl)c1` (stereo not drawn), “inactive”.

For the molecule `O=P(Nc1ccccn1)(c1ccc(Br)cc1)c1ccc(Br)cc1`, the Potency entry was “inactive”.

Take `CN(C)C1(CNC(=O)c2ccc(Cl)c(S(N)(=O)=O)c2)CCCCC1`: the Potency entry is “inactive”.

On to `O=P(Nc1nc2ccccc2s1)(c1ccccc1)c1ccccc1`, for which the Potency entry was “inactive”. The value for `C[C@H]1OP(=O)(Oc2ccccc2)[C@H](O)[C@H](O)[C@H]1N=[N+]=[N-]` (stereo partly drawn) was “inactive”; that for `COC(=O)c1cc2c(s1)N=C(c1ccccc1)N(C)P2(=O)N1CCOCC1` (stereo not drawn) was “inactive”; that for `Cc1ccc(OP(=O)(Nc2ccccn2)Oc2ccc(C)cc2)cc1` was “inactive”.

As for `CC(=O)NC(SC(=S)N(CC(C)C)CC(C)C)C(Cl)(Cl)Cl` (stereo not drawn), the Potency result is “inactive”. As to `CN(C(=O)Cc1ccc(Cl)c(Cl)c1)[C@@H]1CCCC[C@@H]1N1CCCC1`, the Potency entry was “inactive”. For the molecule `O=C(OC1CN2CCC1CC2)c1ccccc1` (stereo not drawn), the Potency result is “inactive”. For `CCC(=O)N1C2C3N(C(=O)CC)C1C1N(C(=O)CC)C(C(N1C(=O)CC)N3C(=O)CC)N2C(=O)CC`, the Potency entry is “inactive”. The value for `Cc1ccccc1OP(=O)(Nc1ccccn1)Oc1ccccc1C` was “inactive”; that for `CC(NC(=O)COC(=O)C(O)(c1ccccc1)c1ccccc1)c1ccccc1` (stereo not drawn) was “inactive”. The value for `CN(C)C(=O)Oc1noc2ccccc12` was “inactive”; that for `O=c1c2cc([N+](=O)[O-])ccc2[nH]c2c([N+](=O)[O-])cc([N+](=O)[O-])cc12` was active: 15.8 µM. Turning to `CCNC(=S)/N=C(\N)N[N+](=O)[O-]`, the Potency entry is “inactive”.

As for `O=C(NC1CCS(=O)(=O)C1)NP(=S)(Oc1ccccc1)Oc1ccccc1` (stereo not drawn), the Potency entry was “inactive”.

Regarding `c1ccc(-c2nn[nH]n2)c(-c2nn[nH]n2)c1`, the Potency entry was “inactive”. With `O=[N+]([O-])c1cc([N+](=O)[O-])c2nc[nH]c2c1`, the Potency result was “inactive”. On to `Cc1ccc(NP(=O)(Oc2cccc(C)c2)Oc2cccc(C)c2)nc1`, for which the Potency entry was “inactive”. Consider `O=P1(N(CCCl)CCCl)OCCC2CCCCN21` (stereo not drawn), for which the Potency entry is “inactive”. On to `N#C/C(=C\c1ccc(N(CCBr)CCBr)cc1)C(N)=O`, for which the Potency entry is “inactive”. `CC(=O)c1ccc(N2CC2c2ccncc2)cc1` (stereo not drawn): the Potency result is “inactive”. Take `COC(=O)C1(C)COP(=O)(NCc2ccccc2)OC1` (stereo not drawn): the Potency result is “inactive”. In the case of `Cc1ccccc1CN(C)C(=O)COC(=O)C(O)(c1ccccc1)c1ccccc1`, the Potency entry was “inactive”. On to `C[C@@H]1C=CCP(=O)(Oc2ccccc2)O1` (stereo partly drawn), for which the Potency entry was “inactive”. For `C[C@H]1OP(=O)(Oc2ccccc2)C[C@@H]2O[C@@H]21` (stereo partly drawn), the Potency entry is “inactive”. The value for `CC(=O)Nc1ccc([As](=O)(O)O)c(O)c1` was “inactive”; that for `CC(=O)Nc1ccc(Oc2c([N+](=O)[O-])cc([N+](=O)[O-])cc2[N+](=O)[O-])cc1` was “inactive”; that for `O=P1(Nc2nc3ccc(Cl)cc3s2)COc2ccccc2O1` (stereo not drawn) was “inactive”. Turning to `CCc1cc(O)c([N+](=O)[O-])c(C)c1[N+](=O)[O-]`, the Potency result was “inactive”. To `CC(C)(C)C(=O)NC(Sc1ccccc1)C(Cl)(Cl)Cl` (stereo not drawn) belongs “inactive”.
